Measured values from IntAct's records for PubMed 23460739.

B1: Mannose-binding protein C (Homo sapiens), P11226 (parent)
chain: MSLFPSLPLLLLSMVAASYSETVTCEDAQKTCPAVIACSSPGINGFPGKDGRDGTKGEKGEPGQGLRGLQGPPGKLGPPGNPGPSGSPGPKGQKGDPGKSPDGDSSLAASERKALQTEMARIKKWLTFSLGKQVGNKFFLTNGEIMTFEKVKALCVKFQASVATPRNAAENGAIQNLIKEEAFLGITDEKTEGQFVDLTGNRLTYTNWNEGEPNNAGSDEDCVLLLKNGQWNDVPCSTSHLAVCEFPI

Variants of: B1
Conditions: with cr1_human CR1, P17927

| Variant | effect of a mutation on the interaction |
| --- | --- |
| K75A | disrupting interaction strength |
| K75E | disrupting interaction strength |
